The source of these data is PMC8584244 (International Journal of Molecular Sciences, 2021).

This assay has as its target T1, HpCAβ (Helicobacter pylori, UniProt O24855).
T1 sequence (O24855 1-221): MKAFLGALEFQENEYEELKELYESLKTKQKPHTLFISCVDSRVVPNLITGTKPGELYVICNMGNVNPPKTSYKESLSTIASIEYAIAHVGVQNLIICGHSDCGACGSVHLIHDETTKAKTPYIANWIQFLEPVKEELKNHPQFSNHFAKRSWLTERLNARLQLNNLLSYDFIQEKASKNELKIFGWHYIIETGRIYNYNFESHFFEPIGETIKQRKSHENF
In kind it is biochemical.

`Cc1ccc(C(C)C)c(O)c1` [thymol]: the “fold higher inhibition profile of thymol over carvacrol” value was determined as 4 fold.
